Laboratory results published in patent US20180334447A1, “2,3,4,5-TETRAHYDROPYRIDIN-6-AMINE DERIVATIVES” (JANSSEN PHARMACEUTICA NV, priority 2015, published 2018).

The chains behind the UniProt entries cited, without tags or fusion partners. Residues count along the entry.
UniProt P56817, 46-501 limits assumed: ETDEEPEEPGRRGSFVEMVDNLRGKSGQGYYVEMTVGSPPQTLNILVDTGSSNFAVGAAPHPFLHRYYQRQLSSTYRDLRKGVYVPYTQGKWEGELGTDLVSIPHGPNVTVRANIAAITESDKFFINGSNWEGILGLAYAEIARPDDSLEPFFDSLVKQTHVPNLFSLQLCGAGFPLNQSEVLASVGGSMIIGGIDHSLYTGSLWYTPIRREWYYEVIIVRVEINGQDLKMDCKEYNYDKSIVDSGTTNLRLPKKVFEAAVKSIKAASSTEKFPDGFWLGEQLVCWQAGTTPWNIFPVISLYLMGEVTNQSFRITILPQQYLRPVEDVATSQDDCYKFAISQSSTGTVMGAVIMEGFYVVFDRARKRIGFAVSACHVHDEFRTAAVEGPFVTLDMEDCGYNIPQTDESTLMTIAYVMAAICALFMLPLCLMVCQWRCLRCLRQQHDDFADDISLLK
UniProt Q9Y5Z0, 63-518 limits assumed: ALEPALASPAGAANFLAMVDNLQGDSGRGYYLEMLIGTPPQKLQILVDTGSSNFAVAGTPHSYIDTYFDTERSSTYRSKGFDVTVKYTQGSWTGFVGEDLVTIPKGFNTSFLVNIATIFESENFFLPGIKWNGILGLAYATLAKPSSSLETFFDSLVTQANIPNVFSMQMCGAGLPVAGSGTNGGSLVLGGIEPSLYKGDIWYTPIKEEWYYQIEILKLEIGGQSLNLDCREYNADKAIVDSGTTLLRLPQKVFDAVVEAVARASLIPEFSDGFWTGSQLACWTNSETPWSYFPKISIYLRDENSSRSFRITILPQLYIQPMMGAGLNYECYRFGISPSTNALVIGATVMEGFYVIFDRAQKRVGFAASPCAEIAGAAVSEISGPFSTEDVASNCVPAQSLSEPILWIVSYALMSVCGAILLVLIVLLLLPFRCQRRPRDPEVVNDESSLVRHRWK

What was measured:
[1] = target: recombinant BACE1 protein (Homo sapiens, UniProt P56817); test: BACE1 biochemical FRET based assay - Method 1; conditions: BACE1, 120 minutes at room temperature, pH 5.0
Source text: (§1) This assay is a Fluorescence Resonance Energy Transfer Assay (FRET) based assay. The substrate for this assay is an APP derived 13 amino acids peptide that contains the ‘Swedish’ Lys-Met/Asn-Leu mutation of the amyloid precursor protein (APP) beta-secretase cleavage site. This substrate also contains two fluorophores: (7-methoxycoumarin-4-yl) acetic acid (Mca) is a fluorescent donor with excitation wavelength at 320 nm and emission at 405 nm and 2,4-Dinitrophenyl (Dnp) is a proprietary quencher acceptor. […] Upon cleavage by BACE1, the fluorophore Mca is separated from the quenching group Dnp, restoring the full fluorescence yield of the donor. The increase in fluorescence is linearly related to the rate of proteolysis.
Briefly in a 384-well format recombinant BACE1 protein in a final concentration of 1 μg/ml is incubated for 120 minutes at room temperature with 10 μm substrate in incubation buffer (40 mM Citrate buffer pH 5.0, 0.04% PEG, 4% DMSO) in the absence or presence of compound. Next the amount of proteolysis is directly measured by fluorescence measurement at T=0 and T=120 (excitation at 320 nm and emission at 405 nm). Results are expressed in RFU (Relative Fluorescence Units), as difference between T120 and T0.
(§2) A best-fit curve is fitted by a minimum sum of squares method to the plot of % Controlmin versus compound concentration. From this an IC50 value (inhibitory concentration causing 50% inhibition of activity) can be obtained.

[2] = system: Abeta 1-42 produced and secreted into the medium of human neuroblastoma SKNBE2 cells; test: Cellular αLisa assay in SKNBE2 cells, Abeta 42; conditions: SKNBE2 cells expressing hAPP695, incubated for 18 hours
Description: In two αLisa assays the levels of Abeta 1-42 produced and secreted into the medium of human neuroblastoma SKNBE2 cells are quantified. The assay is based on the human neuroblastoma SKNBE2 expressing the wild type Amyloid Precursor Protein (hAPP695). The compounds are diluted and added to these cells, incubated for 18 hours and then measurements of Abeta 1-42 are taken. Abeta 1-42 are measured by sandwich αLisa. αLisa is a sandwich assay using biotinylated antibody AbN/25 attached to streptavidin coated beads and antibody cAb42/26 conjugated acceptor beads for the detection of Abeta 1-42 respectively. In the presence of Abeta 1-42, the beads come into close proximity. The excitation of the donor beads provokes the release of singlet oxygen molecules that trigger a cascade of energy transfer in the acceptor beads, resulting in light emission. Light emission is measured after 1 hour incubation (excitation at […] and emission at 615 nm).
as §2

[3] = target: recombinant BACE2 protein (Homo sapiens, UniProt Q9Y5Z0); test: BACE2 biochemical FRET based assay; conditions: BACE2, 450 minutes at room temperature, pH 5.0
Source text: as §1, with “assay” for “assay is an APP derived 13 amino acids peptide that”, “the beta-secretase,” for “BACE1,”
Briefly in a 384-well format recombinant BACE2 protein in a final concentration of 0.4 μg/ml is incubated for 450 minutes at room temperature with 10 μM substrate in incubation buffer (50 mM Citrate buffer pH 5.0, 0.05% PEG, no DMSO) in the absence or presence of compound. Next the amount of proteolysis is directly measured by fluorescence measurement at T=0 and T=450 (excitation at 320 nm and emission at 405 nm). Results are expressed in RFU (Relative Fluorescence Units), as difference between T450 and T0.
as §2

In the case of `CO[C@H]1C[C@](C)(C#N)C(N)=N[C@]1(C)c1cc(NC(=O)c2cnc(OCF)cn2)ccc1F`, the “Biochemical FRET based assay - Method 1 pIC50” value [1] was 6.77, the “Cellular αLisa assay in SKNBE2 cells Abeta 42 pIC50” value (“Cellular αLisa assay” for short) [2] was 7.09 and the “Biochemical FRET based assay pIC50” value [3] was 5.72.

In the case of `CO[C@@H]1C[C@](C)(S(C)(=O)=O)C(N)=N[C@]1(C)c1cc(NC(=O)c2cnc(OCF)cn2)ccc1F`, the “Biochemical FRET based assay - Method 1 pIC50” value [1] was 6.48, the “Cellular αLisa assay” value [2] was 6.6 and the “Biochemical FRET based assay pIC50” value [3] was 5.14.

For `COc1cnc(C(=O)Nc2ccc(F)c([C@]3(CF)CCC(C)(C#N)C(N)=N3)c2)cn1` (stereo partly drawn), the “Biochemical FRET based assay - Method 1 pIC50” value [1] was 7.29, the “Cellular αLisa assay” value [2] was 7.25 and the “Biochemical FRET based assay pIC50” value [3] was 6.27.

In the case of `CC[C@@]1(S(C)(=O)=O)CC[C@@](CF)(c2cc(NC(=O)c3ccc(F)cn3)ccc2F)N=C1N`, the “Biochemical FRET based assay - Method 1 pIC50” value [1] was 7.3, the “Cellular αLisa assay” value [2] was 6.89 and the “Biochemical FRET based assay pIC50” value [3] was 7.53.
